CycPeptMPDB entries from one study

Data: CycPeptMPDB; original report Kelly et al. 2021, doi:10.1021/jacs.0c06115.

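Conditions beyond the assay type are not listed; see the original paper. The list need not hold all peptides of the study. Entries at the database's floor value (log10 P of -10) are not listed.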

PAMPA measures passive passage through an artificial lipid membrane. Permeability is given as log10 of P in cm/s; higher (less negative) is more permeable.

{"smiles": "CC(=O)N1CCC[C@H]1C(=O)N(C)[C@H](CC(C)C)C(=O)N[C@@H]1C(=O)N[C@H](CC(C)C)C(=O)N(C)[C@@H](CC(C)C)C(=O)N[C@@H](CC(C)C)C(=O)N[C@@H](C)C(=O)N[C@H](CC(C)C)C(=O)N2CCC[C@@H]2C(=O)O[C@@H]1C", "PAMPA (log10 cm/s)": "-5.94"}
{"smiles": "CC(=O)N1CCC[C@@H]1C(=O)N(C)[C@H](CC(C)C)C(=O)N[C@@H]1C(=O)N[C@H](CC(C)C)C(=O)N(C)[C@H](CC(C)C)C(=O)N[C@H](CC(C)C)C(=O)N[C@@H](C)C(=O)N[C@H](CC(C)C)C(=O)N2CCC[C@H]2C(=O)O[C@@H]1C", "PAMPA (log10 cm/s)": "-5.33"}
{"smiles": "CC(=O)N1CCC[C@@H]1C(=O)N(C)[C@H](CC(C)C)C(=O)N[C@@H]1C(=O)N[C@H](CC(C)C)C(=O)N(C)[C@H](CC(C)C)C(=O)N(C)[C@@H](CC(C)C)C(=O)N(C)[C@@H](C)C(=O)N[C@H](CC(C)C)C(=O)N2CCC[C@@H]2C(=O)O[C@@H]1C", "PAMPA (log10 cm/s)": "-5.16"}
{"smiles": "CC(=O)N1CCC[C@H]1C(=O)N(C)[C@@H](CC(C)C)C(=O)N[C@@H]1C(=O)N[C@H](CC(C)C)C(=O)N(C)[C@H](CC(C)C)C(=O)N[C@H](CC(C)C)C(=O)N[C@H](C)C(=O)N[C@H](CC(C)C)C(=O)N2CCC[C@H]2C(=O)O[C@@H]1C", "PAMPA (log10 cm/s)": "-6.15"}
{"smiles": "CC(=O)N1CCC[C@H]1C(=O)N(C)[C@H](CC(C)C)C(=O)N[C@@H]1C(=O)N(C)[C@H](CC(C)C)C(=O)N(C)[C@H](CC(C)C)C(=O)N[C@H](CC(C)C)C(=O)N(C)[C@H](C)C(=O)N[C@@H](CC(C)C)C(=O)N2CCC[C@@H]2C(=O)O[C@@H]1C", "PAMPA (log10 cm/s)": "-5.36"}
{"smiles": "CC(=O)N1CCC[C@H]1C(=O)N(C)[C@@H](CC(C)C)C(=O)N[C@@H]1C(=O)N[C@H](CC(C)C)C(=O)N[C@@H](CC(C)C)C(=O)N(C)[C@H](CC(C)C)C(=O)N[C@H](C)C(=O)N[C@H](CC(C)C)C(=O)N2CCC[C@@H]2C(=O)O[C@@H]1C", "PAMPA (log10 cm/s)": "-6.41"}
{"smiles": "CC(=O)N1CCC[C@H]1C(=O)N(C)[C@@H](CC(C)C)C(=O)N[C@@H]1C(=O)N[C@H](CC(C)C)C(=O)N(C)[C@@H](CC(C)C)C(=O)N[C@@H](CC(C)C)C(=O)N(C)[C@@H](C)C(=O)N[C@@H](CC(C)C)C(=O)N2CCC[C@H]2C(=O)O[C@@H]1C", "PAMPA (log10 cm/s)": "-5.96"}
{"smiles": "CC(=O)N1CCC[C@H]1C(=O)N(C)[C@H](CC(C)C)C(=O)N[C@@H]1C(=O)N[C@H](CC(C)C)C(=O)N(C)[C@@H](CC(C)C)C(=O)N[C@@H](CC(C)C)C(=O)N[C@@H](C)C(=O)N[C@@H](CC(C)C)C(=O)N2CCC[C@@H]2C(=O)O[C@@H]1C", "PAMPA (log10 cm/s)": "-5.57"}
{"smiles": "CC(=O)N1CCC[C@H]1C(=O)N(C)[C@H](CC(C)C)C(=O)N[C@@H]1C(=O)N[C@@H](CC(C)C)C(=O)N[C@H](CC(C)C)C(=O)N[C@H](CC(C)C)C(=O)N[C@H](C)C(=O)N[C@H](CC(C)C)C(=O)N2CCC[C@@H]2C(=O)O[C@@H]1C", "PAMPA (log10 cm/s)": "-6.93"}
{"smiles": "CC(=O)N1CCC[C@H]1C(=O)N(C)[C@@H](CC(C)C)C(=O)N[C@@H]1C(=O)N[C@@H](CC(C)C)C(=O)N(C)[C@@H](CC(C)C)C(=O)N[C@H](CC(C)C)C(=O)N[C@@H](C)C(=O)N[C@@H](CC(C)C)C(=O)N2CCC[C@H]2C(=O)O[C@@H]1C", "PAMPA (log10 cm/s)": "-6.94"}
{"smiles": "CC(=O)N1CCC[C@@H]1C(=O)N(C)[C@@H](CC(C)C)C(=O)N[C@@H]1C(=O)N(C)[C@@H](CC(C)C)C(=O)N[C@@H](CC(C)C)C(=O)N(C)[C@@H](CC(C)C)C(=O)N[C@@H](C)C(=O)N[C@@H](CC(C)C)C(=O)N2CCC[C@@H]2C(=O)O[C@@H]1C", "PAMPA (log10 cm/s)": "-5.85"}
{"smiles": "CC(=O)N1CCC[C@@H]1C(=O)N(C)[C@@H](CC(C)C)C(=O)N[C@@H]1C(=O)N[C@H](CC(C)C)C(=O)N[C@H](CC(C)C)C(=O)N(C)[C@@H](CC(C)C)C(=O)N(C)[C@@H](C)C(=O)N[C@H](CC(C)C)C(=O)N2CCC[C@@H]2C(=O)O[C@@H]1C", "PAMPA (log10 cm/s)": "-5.42"}
{"smiles": "CC(=O)N1CCC[C@@H]1C(=O)N(C)[C@H](CC(C)C)C(=O)N[C@@H]1C(=O)N[C@H](CC(C)C)C(=O)N(C)[C@H](CC(C)C)C(=O)N[C@@H](CC(C)C)C(=O)N[C@@H](C)C(=O)N[C@H](CC(C)C)C(=O)N2CCC[C@H]2C(=O)O[C@@H]1C", "PAMPA (log10 cm/s)": "-6.10"}
{"smiles": "CC(=O)N1CCC[C@@H]1C(=O)N(C)[C@@H](CC(C)C)C(=O)N[C@@H]1C(=O)N[C@H](CC(C)C)C(=O)N[C@H](CC(C)C)C(=O)N(C)[C@@H](CC(C)C)C(=O)N(C)[C@H](C)C(=O)N[C@@H](CC(C)C)C(=O)N2CCC[C@@H]2C(=O)O[C@@H]1C", "PAMPA (log10 cm/s)": "-6.32"}
{"smiles": "CC(=O)N1CCC[C@H]1C(=O)N(C)[C@H](CC(C)C)C(=O)N[C@@H]1C(=O)N[C@@H](CC(C)C)C(=O)N[C@@H](CC(C)C)C(=O)N(C)[C@@H](CC(C)C)C(=O)N(C)[C@@H](C)C(=O)N[C@@H](CC(C)C)C(=O)N2CCC[C@H]2C(=O)O[C@@H]1C", "PAMPA (log10 cm/s)": "-5.94"}
{"smiles": "CC(=O)N1CCC[C@@H]1C(=O)N(C)[C@H](CC(C)C)C(=O)N[C@@H]1C(=O)N[C@H](CC(C)C)C(=O)N(C)[C@H](CC(C)C)C(=O)N(C)[C@H](CC(C)C)C(=O)N(C)[C@H](C)C(=O)N[C@H](CC(C)C)C(=O)N2CCC[C@@H]2C(=O)O[C@@H]1C", "PAMPA (log10 cm/s)": "-5.44"}
{"smiles": "CC(=O)N1CCC[C@@H]1C(=O)N(C)[C@H](CC(C)C)C(=O)N[C@@H]1C(=O)N[C@@H](CC(C)C)C(=O)N[C@@H](CC(C)C)C(=O)N[C@@H](CC(C)C)C(=O)N(C)[C@H](C)C(=O)N[C@H](CC(C)C)C(=O)N2CCC[C@H]2C(=O)O[C@@H]1C", "PAMPA (log10 cm/s)": "-6.28"}
{"smiles": "CC(=O)N1CCC[C@@H]1C(=O)N(C)[C@H](CC(C)C)C(=O)N[C@@H]1C(=O)N(C)[C@@H](CC(C)C)C(=O)N[C@H](CC(C)C)C(=O)N(C)[C@@H](CC(C)C)C(=O)N(C)[C@@H](C)C(=O)N[C@@H](CC(C)C)C(=O)N2CCC[C@H]2C(=O)O[C@@H]1C", "PAMPA (log10 cm/s)": "-6.01"}
{"smiles": "CC(=O)N1CCC[C@@H]1C(=O)N(C)[C@@H](CC(C)C)C(=O)N[C@@H]1C(=O)N[C@@H](CC(C)C)C(=O)N[C@@H](CC(C)C)C(=O)N[C@@H](CC(C)C)C(=O)N(C)[C@@H](C)C(=O)N[C@H](CC(C)C)C(=O)N2CCC[C@H]2C(=O)O[C@@H]1C", "PAMPA (log10 cm/s)": "-6.43"}
{"smiles": "CC(=O)N1CCC[C@@H]1C(=O)N(C)[C@@H](CC(C)C)C(=O)N[C@@H]1C(=O)N[C@H](CC(C)C)C(=O)N(C)[C@H](CC(C)C)C(=O)N[C@H](CC(C)C)C(=O)N[C@@H](C)C(=O)N[C@@H](CC(C)C)C(=O)N2CCC[C@H]2C(=O)O[C@@H]1C", "PAMPA (log10 cm/s)": "-5.84"}
{"smiles": "CC(=O)N1CCC[C@H]1C(=O)N(C)[C@@H](CC(C)C)C(=O)N[C@@H]1C(=O)N[C@@H](CC(C)C)C(=O)N[C@H](CC(C)C)C(=O)N(C)[C@@H](CC(C)C)C(=O)N[C@@H](C)C(=O)N[C@@H](CC(C)C)C(=O)N2CCC[C@H]2C(=O)O[C@@H]1C", "PAMPA (log10 cm/s)": "-5.99"}
{"smiles": "CC(=O)N1CCC[C@H]1C(=O)N[C@@H]1C(=O)N[C@H](CC(C)C)C(=O)N(C)[C@@H](CC(C)C)C(=O)N(C)[C@H](CC(C)C)C(=O)N(C)[C@H](CC(C)C)C(=O)N(C)[C@@H](C)C(=O)N[C@@H](CC(C)C)C(=O)N2CCC[C@@H]2C(=O)O[C@@H]1C", "PAMPA (log10 cm/s)": "-5.24"}
{"smiles": "CC(=O)N1CCC[C@H]1C(=O)N(C)[C@H](CC(C)C)C(=O)N[C@@H]1C(=O)N(C)[C@@H](CC(C)C)C(=O)N(C)[C@@H](CC(C)C)C(=O)N(C)[C@H](CC(C)C)C(=O)N(C)[C@@H](C)C(=O)N[C@H](CC(C)C)C(=O)N2CCC[C@@H]2C(=O)O[C@@H]1C", "PAMPA (log10 cm/s)": "-5.33"}

2 of these entries, quoted again:

structure (SMILES)	PAMPA (log10 cm/s)
CC(=O)N1CCC[C@H]1C(=O)N(C)[C@@H](CC(C)C)C(=O)N[C@@H]1C(=O)N[C@H](CC(C)C)C(=O)N(C)[C@H](CC(C)C)C(=O)N[C@H](CC(C)C)C(=O)N[C@H](C)C(=O)N[C@H](CC(C)C)C(=O)N2CCC[C@H]2C(=O)O[C@@H]1C	-6.15
CC(=O)N1CCC[C@H]1C(=O)N(C)[C@@H](CC(C)C)C(=O)N[C@@H]1C(=O)N[C@H](CC(C)C)C(=O)N[C@@H](CC(C)C)C(=O)N(C)[C@H](CC(C)C)C(=O)N[C@H](C)C(=O)N[C@H](CC(C)C)C(=O)N2CCC[C@@H]2C(=O)O[C@@H]1C	-6.41